2 compounds from patent US20250230159A1, “FUSED HETEROCYCLIC COMPOUNDS AS MODULATORS OF RAS SIGNALLING” (Shenzhen Ionova Life Science Co., Ltd., priority 2022, published 2025) can be followed below.

The chains behind the UniProt entries cited, without tags or fusion partners. Where a name states a change or a piece, a line headed by the entry shows the natural chain unless it says otherwise.
UniProt Q07889, whole entry, stated change not applied: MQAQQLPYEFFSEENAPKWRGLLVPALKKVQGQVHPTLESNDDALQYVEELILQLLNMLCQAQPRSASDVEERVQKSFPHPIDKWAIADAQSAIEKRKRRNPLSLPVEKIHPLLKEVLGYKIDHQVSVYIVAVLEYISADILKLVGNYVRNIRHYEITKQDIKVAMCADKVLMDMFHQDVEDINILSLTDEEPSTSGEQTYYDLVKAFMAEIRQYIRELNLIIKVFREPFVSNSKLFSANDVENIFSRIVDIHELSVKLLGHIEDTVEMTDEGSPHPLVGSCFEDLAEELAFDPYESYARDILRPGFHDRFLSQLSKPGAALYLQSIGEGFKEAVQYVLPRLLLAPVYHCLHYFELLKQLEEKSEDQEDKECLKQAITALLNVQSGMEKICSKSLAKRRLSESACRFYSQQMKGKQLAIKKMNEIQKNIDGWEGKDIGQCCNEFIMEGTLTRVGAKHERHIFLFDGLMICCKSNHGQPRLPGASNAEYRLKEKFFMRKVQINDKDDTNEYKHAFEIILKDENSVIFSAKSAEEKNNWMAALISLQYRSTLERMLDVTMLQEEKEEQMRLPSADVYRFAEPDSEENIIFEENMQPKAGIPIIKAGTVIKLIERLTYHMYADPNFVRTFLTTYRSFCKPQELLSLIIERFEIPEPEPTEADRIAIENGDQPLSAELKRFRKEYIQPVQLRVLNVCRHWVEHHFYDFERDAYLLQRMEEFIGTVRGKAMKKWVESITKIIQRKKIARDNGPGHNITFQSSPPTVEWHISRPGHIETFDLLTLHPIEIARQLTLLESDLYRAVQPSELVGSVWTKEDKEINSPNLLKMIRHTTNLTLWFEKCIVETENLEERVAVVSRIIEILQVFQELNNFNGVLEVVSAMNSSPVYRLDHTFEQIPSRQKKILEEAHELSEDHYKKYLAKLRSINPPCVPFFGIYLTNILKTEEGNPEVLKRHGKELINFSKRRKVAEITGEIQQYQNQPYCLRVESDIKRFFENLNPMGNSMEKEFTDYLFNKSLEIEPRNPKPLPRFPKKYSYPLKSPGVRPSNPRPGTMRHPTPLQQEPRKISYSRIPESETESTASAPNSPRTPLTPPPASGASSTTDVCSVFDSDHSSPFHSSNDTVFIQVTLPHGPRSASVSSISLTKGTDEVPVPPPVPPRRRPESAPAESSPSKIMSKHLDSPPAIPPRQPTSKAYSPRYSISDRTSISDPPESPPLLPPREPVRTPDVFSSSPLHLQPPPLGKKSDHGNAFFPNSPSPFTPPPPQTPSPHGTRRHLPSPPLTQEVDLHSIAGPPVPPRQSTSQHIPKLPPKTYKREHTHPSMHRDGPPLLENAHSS

Assay [1] deals with KRAS-G12C/SOS1 interaction (Homo sapiens (Human), UniProt Q07889). The experiment in a line: Protein-Protein Interaction (PPI) assay, SOS1-KRAS binding assay kit (HTRF). Particulars: read-out: PPI Assay IC50, Table 1 (PPI IC50 < 100 nM), Tag1-SOS1 / Tag2-KRAS-G12C, 10 μM GTP. For orientation: Time-resolved FRET reads energy transfer from a long-lived donor to a nearby acceptor.

In assay [2] the test system is pERK in Hela cells. The assay can be described thus: Phospho-ERK (p-ERK) assay in Hela cells. The following applies: read-out: p-ERK Assay IC50, Table 1, 1 hour with compound, β-actin normalized. How it is done:
This Example illustrates that exemplary compounds of the present invention prevent KRas-mediated GTP nucleotide exchange mediated by SOS1 to inhibit KRas activity, thereby inhibiting the generation of the downstream effector pERK.
Hela cells (23,000/w) were seeded in a black clear flat bottom 96-well cell culture plate (Corning, #3904) and incubated at 37° C. overnight. At day 2, cells were dosed with compounds of Formula (I) with a 10 μM starting concentration and serially diluted 3× for a total of 9 concentrations. The cells were incubated for 1 hour with the compounds solubilized in DMSO at 37° C. Cells were immediately fixed by adding 100 μL of 8% formaldehyde to all wells in a fume hood and the plates were incubated for 1 hr at room temperature. The formaldehyde was discarded from the plates and washed 5 times and each time for 5 min with 200 μL of Triton Washing Solution (0.1% Triton in PBS) each time to permeabilize the cells. Cells were then blocked with 150 μL of Odyssey blocking buffer (LI-COR Biosciences #927-50010) at room temperature on a shaker. The blocking buffer was discarded and 50 μL of primary antibodies pERK (cell signaling Technology #4370; Rabbit, 1:500) and β-actin (AF5001; Mouse, 1:2000) diluted in Odyssey blocking buffer was added. […]
On day 3, the primary antibody solution was removed. […] The IC50 values were then calculated with the Graph pad Prism software. […]

Turning to `C[C@@H](Nc1ncnc2c1cc(N1CCOCCC1=O)c1nncn12)c1cccc(C(F)F)c1F`, the IC50 in assay [1] and in assay [2] was less than 100 nM in each case.

Consider `CC[C@@H]1CN(c2cc3c(N[C@H](C)c4cccc(C(F)F)c4F)ncnc3n3cnnc23)C(=O)CO1`, for which the IC50 in assay [1] and in assay [2] was less than 100 nM in each case.
